Patent US10407463B2, “Method for producing alpha-form crystal of reduced glutathione, and method for storing said crystal” (KYOWA HAKKO BIO CO., LTD., priority 2015, dated 2019)

Legend:
[1] = Concentration crystallization of reduced glutathione with habit modifier, production method (1) (Example 5); format: physicochemical; details: 2.5 g added to 50 g reduced glutathione; concentrate cooled to 25° C., stirred 24 hr; microscopic observation
Experimental: Reduced glutathione (50 g) and water (500 mL) were added to a 1 L beaker. […] The prepared solution (filtrate) was concentrated by an evaporator such that the concentration of reduced glutathione was not less than the saturation solubility of α-form crystal to perform concentration crystallization of reduced glutathione.

[2] = Suppression of transition to β-form crystal by habit modifier in α-form crystal slurry (Example 1); format: physicochemical; details: 0.45 g added to 9 g α-form crystals in 30 mL water; 25° C., 24 hr; microscopic observation
Experimental: α-Form crystals of reduced glutathione (9 g) and water (30 mL) were mixed in a glass bottle. […] The glass bottle was shaken in a tray dryer set to 25° C. for 24 hr.

[3] = 430 nm; crystals immersed in 5 wt % additive solution, kept at 40° C. 3 hr, 1 g dissolved in 10 mL water at 25° C.

## oxidized glutathione [GSSG]
[1]
  crystal form produced: produced α-form crystal alone
[2]
  transition of α-form crystal to β-form crystal: suppression of the transition
[3]
  permeability (%): 99%
